{"source": "patent US20160009772A1", "about": "“CELL PENETRATING PEPTIDES WHICH BIND IRF5” (priority 2012, published 2016)", "target": "IRF5(222-467, S430D), S430D phosphomimetic construct of IRF5 (222-467) (human), Q13568", "assay": "TR-FRET IRF5 dimerization inhibition, S430D (222-467), peptide titrated"}
{"binder": "MANLGYWLLLLFVTMWTDVGLAKKRPKP (modifications not checked)", "note": "[Ac-…-NH2 (SEQ ID NO: 4)]", "values": [{"measurement": "IC50", "value": 26.4, "unit": "µM"}]}
